This is an account of results in PubChem BioAssay AID1510 (The Scripps Research Institute Molecular Screening Center, 2009).

The chains behind the UniProt entries cited, without tags or fusion partners.
UniProt O95977, whole entry: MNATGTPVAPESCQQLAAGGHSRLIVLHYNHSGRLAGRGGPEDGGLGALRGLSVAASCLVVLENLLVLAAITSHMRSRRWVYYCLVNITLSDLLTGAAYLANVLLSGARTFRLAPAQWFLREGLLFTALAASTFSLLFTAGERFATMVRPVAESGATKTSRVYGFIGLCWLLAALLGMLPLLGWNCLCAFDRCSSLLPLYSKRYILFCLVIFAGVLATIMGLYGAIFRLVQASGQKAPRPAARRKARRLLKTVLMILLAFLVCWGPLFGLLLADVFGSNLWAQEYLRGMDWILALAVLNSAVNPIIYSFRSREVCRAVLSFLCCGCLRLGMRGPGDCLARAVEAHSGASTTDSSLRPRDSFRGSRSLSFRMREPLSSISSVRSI

The entries are a selection whose mix differs from that of the whole data set. Active and inactive are the calls of the source. Cut-off read from the data, not from the text of the source: active = inhibition above about 29%; inactive = the rest.

This test concerns the target Sphingosine 1-phosphate receptor 4 (Homo sapiens) (UniProt O95977). Description: blockers of human S1P4 receptor – cell-based, primary screen (AID 1510).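 Note: 0% = wells stimulated with agonist and 100% = vehicle wells without agonist.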 To be noted: S1P4-expressing cells, antagonist mode, reporter read-out; at 4.98 µM; hits give high values.
The inhibition is the drop in the measured response relative to a control, in per cent. For the compound `CN(C)c1ccc(C(=O)NCC2(N3CCCCC3)CCCCC2)cc1`, the inhibition is inactive: -15.6%.

Consider `CCN1CCC(Nc2cccc(F)c2)CC1`, for which the inhibition was inactive: -3.11%.

As for `CCCOc1ccc(C)cc1CN(CCCl)CCCl`, the inhibition was inactive: 2.57%.

With `CCC(CO)(C(=O)OC1CN2CCC1CC2)c1ccccc1` (centres undefined), the inhibition is inactive: 1.17%.

For `COc1cc(OC)cc(C(=O)NCC2(N3CCOCC3)CCCCC2)c1`, the inhibition is inactive: -12.4%.

With `CC(C)(C)OC(=O)N1CCC(Nc2ccccc2)CC1`, the inhibition is inactive: -24.3%.

Take `CCOc1ncccc1C(=O)NCC1(N2CCOCC2)CCCCC1`: the inhibition is inactive: 9.66%.

Take `O=C(OC1CN2CCC1CC2)C1c2ccccc2C=Cc2ccccc21` (centres undefined): the inhibition is inactive: 13.5%.

As for `N/C(=N\O)c1c(N)no[n+]1[O-]`, the inhibition is inactive: -1.16%.

Regarding `COc1ccc(C(=O)NCC2(N3CCOCC3)CCCCC2)cc1OC`, the inhibition was inactive: 2.08%.

Regarding `c1ccc(CN2CCC(Nc3ccccc3)CC2)cc1`, the inhibition is inactive: -9.68%.

With `N#Cc1ccc(C(=O)NCC2(N3CCCCC3)CCCCC2)cc1`, the inhibition is inactive: -5.32%.

Regarding `CN1CCN(CCOC(=O)C(O)(c2ccccc2)c2ccccc2)CC1`, the inhibition is inactive: -11.5%.

Consider `COc1ccc(NC2CCN(C(=O)OC(C)(C)C)CC2)cc1`, for which the inhibition was inactive: -8.85%.

Consider `O=C(NCC1(N2CCOCC2)CCCCC1)c1cc(=O)[nH]c2ccccc12`, for which the inhibition was inactive: -1.85%.

With `O=C(NCC1(N2CCCCC2)CCCCC1)c1cccc([N+](=O)[O-])c1`, the inhibition was inactive: 3.29%.

With `N#CC1(Nc2ccccc2)CCN(CCc2ccccc2)CC1`, the inhibition was inactive: 11.4%.

Consider `CN1CCC(Nc2cccc(F)c2)CC1`, for which the inhibition is inactive: -29.4%.

Turning to `CN(C)c1cccc(C(=O)NCC2(N3CCCCC3)CCCCC2)c1`, the inhibition was inactive: -6.31%.

In the case of `COc1ccc(CN(CCCl)CCCl)cc1Cl`, the inhibition was inactive: 5.02%.

For `CC(C)c1ccc(NC2CCN(C(=O)OC(C)(C)C)CC2)cc1`, the inhibition was inactive: -41.6%.

As for `CCOC(=O)N1CCC(Nc2ccc(OC)cc2)CC1`, the inhibition was inactive: 0.89%.

Take `O=C(OC1CN2CCC1CC2)C1c2ccccc2Oc2ccccc21` (centres undefined): the inhibition was inactive: -21%.

As for `N#CC1(Nc2ccccc2)CCN(Cc2ccccc2)CC1`, the inhibition was inactive: 7.18%.

For `O=C(NCC1(N2CCOCC2)CCCCC1)c1cc2ccccc2o1`, the inhibition is inactive: 0.18%.

For the compound `COc1ccc(C(=O)NCC2(N3CCCCC3)CCCCC2)c(OC)c1OC`, the inhibition was inactive: -15.4%.

Turning to `Cc1ccc(OCC(C)C)c(CN(CCCl)CCCl)c1`, the inhibition was inactive: 3.28%.

As for `COc1ccc(NC2CCN(CCc3ccccc3)CC2)c(OC)c1`, the inhibition was inactive: -5.73%.

As for `CCOc1ccc(C)cc1CN(CCCl)CCCl`, the inhibition is inactive: 8.82%.
